Test results taken from patent publication EP4745137A1 (Gluetacs Therapeutics (Shanghai) Co., Ltd., priority 2023, dated 2025).
Read-outs that look alike come from different tables or passages of the source.

Tests used:
SR = assay: Tumor cell proliferation inhibition (CellTiter-Meiluncell Luminescent Cell Viability Assay), SR; details: Homo sapiens, read-out: inhibitory activity (IC50, nM) against tumor cells proliferation, SR
Vcap = assay: Tumor cell proliferation inhibition (CellTiter-Meiluncell Luminescent Cell Viability Assay), Vcap; details: Homo sapiens, 96 h, read-out: inhibitory activity (IC50, nM) against tumor cells proliferation, Vcap
TMD8 = assay: Tumor cell proliferation inhibition (CellTiter-Meiluncell Luminescent Cell Viability Assay), TMD8; details: Homo sapiens
MM.1S = assay: Tumor cell proliferation inhibition (CellTiter-Meiluncell Luminescent Cell Viability Assay), MM.1S; details: Homo sapiens, MM1.S, read-out: inhibitory activity (IC50, nM) against tumor cells proliferation, MM.1S
MM.1R = assay: Tumor cell proliferation inhibition (CellTiter-Meiluncell Luminescent Cell Viability Assay), MM.1R; details: Homo sapiens, 96 h, read-out: inhibitory activity (IC50, nM) against tumor cells proliferation, MM.1R
SW620 = assay: Tumor cell proliferation inhibition (CellTiter-Meiluncell Luminescent Cell Viability Assay), SW620; details: Homo sapiens, SW-620, 96 h, read-out: inhibitory activity (IC50, nM) against tumor cells proliferation, SW620
Jurkat = assay: Tumor cell proliferation inhibition (CellTiter-Meiluncell Luminescent Cell Viability Assay), Jurkat; details: Homo sapiens, read-out: inhibitory activity (IC50, nM) against tumor cells proliferation, Jurkat
CAL-62 = assay: Tumor cell proliferation inhibition (CellTiter-Meiluncell Luminescent Cell Viability Assay), CAL-62; details: Homo sapiens, CAL-62, 96 h, read-out: inhibitory activity (IC50, nM) against tumor cells proliferation, CAL-62
[1] = test system: Human acute T lymphocytic leukemia cells (Molt-4); assay: Tumor cell proliferation inhibition (CellTiter-Meiluncell Luminescent Cell Viability Assay), Molt-4
MGC803 = assay: Tumor cell proliferation inhibition (CellTiter-Meiluncell Luminescent Cell Viability Assay), MGC803; details: Homo sapiens, MGC-803, 96 h, read-out: inhibitory activity (IC50, nM) against tumor cells proliferation, MGC803
MV-4-11 = assay: Tumor cell proliferation inhibition (CellTiter-Meiluncell Luminescent Cell Viability Assay), MV-4-11; details: Homo sapiens, MV4-11, read-out: inhibitory activity (IC50, nM) against tumor cells proliferation, MV-4-11
CCRF-CEM = assay: Tumor cell proliferation inhibition (CellTiter-Meiluncell Luminescent Cell Viability Assay), CCRF-CEM; details: Homo sapiens, read-out: inhibitory activity (IC50, nM) against tumor cells proliferation, CCRF-CEM
NCI-H1975 = assay: Tumor cell proliferation inhibition (CellTiter-Meiluncell Luminescent Cell Viability Assay), NCI-H1975; details: Homo sapiens
[2] = test system: Human breast cancer cells (MDA-MB-231); assay: Tumor cell proliferation inhibition (CellTiter-Meiluncell Luminescent Cell Viability Assay), MDA-MB-231; details: MDA-MB-231, 96 h, read-out: inhibitory activity (IC50, nM) against tumor cells proliferation, MDA-MB-231

- IC50 (SR; 96 h): > 10000 nM
- IC50 (SR): > 10000 nM
- IC50 (Vcap): > 10000 nM
- IC50 (TMD8; TMD8, 96 h, read-out: inhibitory activity (IC50, nM) against tumor cells proliferation, TMD8): > 10000 nM
- IC50 (TMD8; TMD8, read-out: inhibitory activity (IC50, nM) against tumor cells proliferation, TMD8): > 10000 nM
- IC50 (MM.1S): 1000 to 5000 nM
- IC50 (MM.1R): > 10000 nM
- IC50 (SW620): > 10000 nM
- IC50 (Jurkat; 96 h): > 10000 nM
- IC50 (Jurkat): > 10000 nM
- IC50 (CAL-62): > 10000 nM
- IC50 ([1]; MOLT-4, 96 h, read-out: inhibitory activity (IC50, nM) against tumor cells proliferation, Molt 4): > 10000 nM
- IC50 ([1]; MOLT-4, read-out: inhibitory activity (IC50, nM) against tumor cells proliferation, Molt-4): > 10000 nM
- IC50 (MGC803): > 10000 nM
- IC50 (MV-4-11): > 10000 nM
- IC50 (CCRF-CEM; 96 h): > 10000 nM
- IC50 (CCRF-CEM): > 10000 nM
- IC50 (NCI-H1975; NCI-H1975, 96 h, read-out: inhibitory activity (IC50, nM) against tumor cells proliferation, H1975): > 10000 nM
- IC50 (NCI-H1975; NCI-H1975, read-out: inhibitory activity (IC50, nM) against tumor cells proliferation, H1975): > 10000 nM
- IC50 [2]: > 10000 nM
Structure (SMILES): Nc1cccc2c1CN(C1CCC(=O)NC1=O)C2=O (centres unmarked) [lenalidomide, reference compound]
